Results on two substances are retold here after patent publication US10004701B2, “Methods and compositions for treating infection” (UNIVERSITY OF ROCHESTER, priority 2012, dated 2018).

Among the test systems are E. faecium; K. pneumoniae; P. aeruginosa; E. cloacae; E. coli.
What all share (experiment): AK assay 384-well format, Prestwick library screening
What all share (settings): 50 μM final drug concentration

The subject of assay [1] is S. aureus strain USA300-0114.
Assay [2] has as its system A. baumannii strain 98-37-09.
Where [3] appears, read: cutoff for positive-scoring molecules 3-fold increase.

Pirlindole mesylate: the “AK-based Prestwick Library Screening Results, E. faecium (fold increase in extracellular AK activity)” value with E. faecium (setting [3]) worked out at 0.9. Besides, in assay [1] (setting [3]), the “AK-based Prestwick Library Screening Results, S. aureus (fold increase in extracellular AK activity)” value is listed as 0.6. In the assay on K. pneumoniae (setting [3]), the “AK-based Prestwick Library Screening Results, K. pneumoniae (fold increase in extracellular AK activity)” value is listed as 0.6. Moreover, the “AK-based Prestwick Library Screening Results, A. baumannii (fold increase in extracellular AK activity)” value in assay [2] (setting [3]) amounted to 0.7. The “AK-based Prestwick Library Screening Results, P. aeruginosa (fold increase in extracellular AK activity)” value with P. aeruginosa (setting [3]) was determined as 0.7. For the same substance, the “AK-based Prestwick Library Screening Results, E. cloacae (fold increase in extracellular AK activity)” value in the assay with E. cloacae (setting [3]) is 0.7. Moreover, the “AK-based Prestwick Library Screening Results, E. coli (fold increase in extracellular AK activity)” value in the assay with E. coli (setting [3]) is 0.7.
In the case of Thiethylperazine malate, the “AK-based Prestwick library screening result, E. faecium (fold increase in extracellular AK activity)” value with E. faecium (planktonic E. faecium, positive cutoff 3-fold increase) is recorded as 1.0. In assay [1] (planktonic S. aureus, positive cutoff 3-fold increase), the “AK-based Prestwick library screening result, S. aureus (fold increase in extracellular AK activity)” value came out at 0.8. Besides, the “AK-based Prestwick library screening result, K. pneumoniae (fold increase in extracellular AK activity)” value with K. pneumoniae (planktonic K. pneumoniae, positive cutoff 3-fold increase) turned out to be 1.0. The “AK-based Prestwick library screening result, A. baumannii (fold increase in extracellular AK activity)” value in assay [2] (planktonic A. baumannii, positive cutoff 3-fold increase) amounted to 2.1. Also, the “AK-based Prestwick library screening result, P. aeruginosa (fold increase in extracellular AK activity)” value in the assay on P. aeruginosa (planktonic P. aeruginosa, positive cutoff 3-fold increase) was 0.8. The “AK-based Prestwick library screening result, E. cloacae (fold increase in extracellular AK activity)” value with E. cloacae (planktonic E. cloacae, positive cutoff 3-fold increase) was found to be 1.0. In the assay with E. coli (planktonic E. coli, positive cutoff 3-fold increase), the “AK-based Prestwick library screening result, E. coli (fold increase in extracellular AK activity)” value came out at 1.1.
